# System: MV-4-11 (human myeloid monocytic leukemia cell line)
# Sequences of proteins named here, by UniProt entry; tags and fusion partners are left off. Residues count along the entry.
# UniProt P30530, 473-894 limits assumed: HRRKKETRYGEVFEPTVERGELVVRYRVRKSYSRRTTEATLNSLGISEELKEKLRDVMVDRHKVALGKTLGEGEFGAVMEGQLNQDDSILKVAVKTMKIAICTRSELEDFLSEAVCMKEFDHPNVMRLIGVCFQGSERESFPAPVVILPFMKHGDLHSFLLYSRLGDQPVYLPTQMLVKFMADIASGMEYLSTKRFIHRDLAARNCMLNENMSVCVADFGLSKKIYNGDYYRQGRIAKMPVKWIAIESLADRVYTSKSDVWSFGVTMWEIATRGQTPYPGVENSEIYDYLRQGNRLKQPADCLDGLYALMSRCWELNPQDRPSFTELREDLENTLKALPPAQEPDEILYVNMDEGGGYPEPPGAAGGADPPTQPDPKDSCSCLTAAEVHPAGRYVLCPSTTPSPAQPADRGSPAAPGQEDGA
# Assay: Proliferation inhibition activity of compounds to MV-4-11 cells (CellTiter-Glo)
# Conditions: read-out: IC50 (MV4-11), MV4-11 cells, 72 h dosing
row,IC50,Compound
1,3.9 nM,"Cc1ccc(Nc2nc(Nc3ccc4c(c3)CC[C@@H](N3CC[C@@H](F)C3)CC4)ncc2Cl)c(P(C)(C)=O)c1 (single isomer, unassigned)"
2,3.59 nM,"Cc1ccc(Nc2nc(Nc3ccc4c(c3)CC[C@@H](N3CC[C@H](F)C3)CC4)ncc2Cl)c(P(C)(C)=O)c1 (single isomer, unassigned)"
3,4.36 nM,"Cc1ccc(Nc2nc(Nc3ccc4c(c3)CC[C@@H](N3CC[C@H](O)C3)CC4)ncc2Cl)c(P(C)(C)=O)c1 (single isomer, unassigned)"

row,Compound,IC50
1,"Cc1ccc(Nc2nc(Nc3ccc4c(c3)CC[C@@H](N3CCC5(COC5)C3)CC4)ncc2Cl)c(P(C)(C)=O)c1 (single isomer, unassigned)",3.03 nM
2,"Cc1ccc(Nc2nc(Nc3ccc4c(c3)CC[C@@H](N3CC[C@H](C#N)C3)CC4)ncc2Cl)c(P(C)(C)=O)c1 (single isomer, unassigned)",6.88 nM

# Molecular target: AXL kinase (Homo sapiens, UniProt P30530)
# Assay: Inhibitory activity of compound against AXL kinase (HTRF KinEASE)
# Format: biochemical
# Conditions: read-out: Inhibitory activity IC50 (nM) against AXL; AXL enzyme (Carna, 08-107), ATP 15 μM; "<" means below detection limit of the test
row,Compound,IC50
1,"CO[C@@H]1CCN([C@@H]2CCc3ccc(Nc4ncc(Cl)c(Nc5ccc(C)cc5P(C)(C)=O)n4)cc3CC2)C1 (single isomer, unassigned)",47.4 nM
2,"CO[C@@H]1CCN([C@H]2CCc3ccc(Nc4ncc(Cl)c(Nc5ccc(C)cc5P(C)(C)=O)n4)cc3CC2)C1 (single isomer, unassigned)",4.87 nM
3,"CO[C@H]1CCN([C@@H]2CCc3ccc(Nc4ncc(Cl)c(Nc5ccc(C)cc5P(C)(C)=O)n4)cc3CC2)C1 (single isomer, unassigned)",66.4 nM
4,"CP(C)(=O)c1cc(OC2CC2)ccc1Nc1nc(Nc2ccc3c(c2)CC[C@H](N2CC4CC2C4)CC3)ncc1Cl (single isomer, unassigned)",38.1 nM
5,"Cc1ccc(Nc2nc(Nc3ccc4c(c3)CC[C@@H](N3CCC5(COC5)C3)CC4)ncc2Cl)c(P(C)(C)=O)c1 (single isomer, unassigned)",2.04 nM
6,"Cc1ccc(Nc2nc(Nc3ccc4c(c3)CC[C@@H](N3CC[C@@H](F)C3)CC4)ncc2Cl)c(P(C)(C)=O)c1 (single isomer, unassigned)",3.21 nM
7,"Cc1ccc(Nc2nc(Nc3ccc4c(c3)CC[C@@H](N3CC[C@H](C#N)C3)CC4)ncc2Cl)c(P(C)(C)=O)c1 (single isomer, unassigned)",4.01 nM
8,"Cc1ccc(Nc2nc(Nc3ccc4c(c3)CC[C@@H](N3CC[C@H](O)C3)CC4)ncc2Cl)c(P(C)(C)=O)c1 (single isomer, unassigned)",4.11 nM
9,"Cc1ccc(Nc2nc(Nc3ccc4c(c3)CC[C@H](N3CCC5(COC5)C3)CC4)ncc2Cl)c(P(C)(C)=O)c1 (single isomer, unassigned)",38.2 nM
10,"Cc1ccc(Nc2nc(Nc3ccc4c(c3)CC[C@H](N3CC[C@@H](C#N)C3)CC4)ncc2Cl)c(P(C)(C)=O)c1 (single isomer, unassigned)",38.2 nM
11,"Cc1ccc(Nc2nc(Nc3ccc4c(c3)CC[C@H](N3CC[C@@H](F)C3)CC4)ncc2Cl)c(P(C)(C)=O)c1 (single isomer, unassigned)",50.1 nM
12,"Cc1ccc(Nc2nc(Nc3ccc4c(c3)CC[C@H](N3CC[C@@H](O)C3)CC4)ncc2Cl)c(P(C)(C)=O)c1 (single isomer, unassigned)",74.3 nM
13,"Cc1ccc(Nc2nc(Nc3ccc4c(c3)CC[C@H](N3CC[C@H](C#N)C3)CC4)ncc2Cl)c(P(C)(C)=O)c1 (single isomer, unassigned)",64.2 nM
14,"Cc1ccc(Nc2nc(Nc3ccc4c(c3)CC[C@H](N3CC[C@H](O)C3)CC4)ncc2Cl)c(P(C)(C)=O)c1 (single isomer, unassigned)",80.5 nM
15,"CP(C)(=O)c1cc(F)ccc1Nc1nc(Nc2ccc3c(c2)CCC(N2CC4CC4C2)CC3)ncc1Cl (single isomer, unassigned) [Example 59 Isomer 59-2]",86.5 nM
16,"CP(C)(=O)c1cc(F)ccc1Nc1nc(Nc2ccc3c(c2)CCC(N2CC4CC2C4)CC3)ncc1Cl (single isomer, unassigned) [Example 60 Isomer 60-2]",107 nM
17,"CP(C)(=O)c1cc(F)ccc1Nc1nc(Nc2ccc3c(c2)CCC(N2CC4CC2CO4)CC3)ncc1Cl (single isomer, unassigned) [Example 63 Isomer 63-2]",61.7 nM
18,"CP(C)(=O)c1cc(F)ccc1Nc1nc(Nc2ccc3c(c2)CCC(N2CC4CC2CO4)CC3)ncc1Cl (single isomer, unassigned) [Example 63 Isomer 63-3]",2.46 nM
19,"CP(C)(=O)c1cc(F)ccc1Nc1nc(Nc2ccc3c(c2)CCC(N2CC4CC2CO4)CC3)ncc1Cl (single isomer, unassigned) [Example 63 Isomer 63-4]",57 nM
20,"Cc1ccc(Nc2nc(Nc3ccc4c(c3)CCC(N3CC5CC3CO5)CC4)ncc2Cl)c(P(C)(C)=O)c1 (single isomer, unassigned) [Example 72 Isomer 72-2]",1 nM
21,"CP(C)(=O)c1cc(OC(F)F)ccc1Nc1nc(Nc2ccc3c(c2)CCC(N2C4CCC2COC4)CC3)ncc1Cl (single isomer, unassigned) [Example 85 Isomer 85-2]",33 nM
22,"CP(C)(=O)c1cc(C#N)ccc1Nc1nc(Nc2ccc3c(c2)CCC(N2CC4CC2C4)CC3)ncc1Cl (single isomer, unassigned) [Example 86 Isomer 86-1]",30.3 nM
23,"CP(C)(=O)c1cc(F)ccc1Nc1nc(Nc2ccc3c(c2)CCC(N2C4COCC2C4)CC3)ncc1Cl (single isomer, unassigned) [Example 91 Isomer 91-2]",57.4 nM
24,"CP(C)(=O)c1cc(Cl)ccc1Nc1nc(Nc2ccc3c(c2)CCC(N2C4COCC2C4)CC3)ncc1Cl (single isomer, unassigned) [Example 93 Isomer 93-2]",14.9 nM
25,"CP(C)(=O)c1cc(OC(F)(F)F)ccc1Nc1nc(Nc2ccc3c(c2)CCC(N2C4COCC2C4)CC3)ncc1Cl (single isomer, unassigned) [Example 100 Isomer 100-1]",1 nM
26,"CP(C)(=O)c1cc(OC(F)(F)F)ccc1Nc1nc(Nc2ccc3c(c2)CCC(N2C4COCC2C4)CC3)ncc1Cl (single isomer, unassigned) [Example 100 Isomer 100-2]",40 nM
27,"CP(C)(=O)c1cc(OC(F)(F)F)ccc1Nc1nc(Nc2ccc3c(c2)CCC(N2CC4CC2C4)CC3)ncc1Cl (single isomer, unassigned) [Example 102 Isomer 102-2]",35.5 nM
28,"CP(C)(=O)c1cc(OC(F)(F)F)ccc1Nc1nc(Nc2ccc3c(c2)CCC(N2C[C@@H]4C[C@H]2CO4)CC3)ncc1Cl (single isomer, unassigned) [Example 104 Isomer 104-2]",63 nM
29,"CP(C)(=O)c1cc(Cl)ccc1Nc1nc(Nc2ccc3c(c2)CCC(N2C[C@H]4C[C@@H]2CO4)CC3)ncc1Cl (single isomer, unassigned) [Example 105 Isomer 105-2]",24.9 nM

# Second part, the molecule after the results:
row,IC50,Compound
1,3.43 nM,"CO[C@H]1CCN([C@H]2CCc3ccc(Nc4ncc(Cl)c(Nc5ccc(C)cc5P(C)(C)=O)n4)cc3CC2)C1 (single isomer, unassigned)"
2,21.8 nM,"CP(C)(=O)c1cc(Cl)ccc1Nc1nc(Nc2ccc3c(c2)CC[C@H](N2C[C@@H]4C[C@H]2CO4)CC3)ncc1Cl (single isomer, unassigned)"
3,8.05 nM,"Cc1ccc(Nc2nc(Nc3ccc4c(c3)CC[C@@H](N3CC[C@@H](O)C3)CC4)ncc2Cl)c(P(C)(C)=O)c1 (single isomer, unassigned)"
4,1.87 nM,"Cc1ccc(Nc2nc(Nc3ccc4c(c3)CC[C@@H](N3CC[C@H](F)C3)CC4)ncc2Cl)c(P(C)(C)=O)c1 (single isomer, unassigned)"
5,63.4 nM,"Cc1ccc(Nc2nc(Nc3ccc4c(c3)CC[C@H](N3CC[C@H](F)C3)CC4)ncc2Cl)c(P(C)(C)=O)c1 (single isomer, unassigned)"
6,60.4 nM,"CP(C)(=O)c1cc(F)ccc1Nc1nc(Nc2ccc3c(c2)CCC(N2CCC4CC42)CC3)ncc1Cl (single isomer, unassigned) [Example 58 Isomer 58-3]"
7,78.5 nM,"CP(C)(=O)c1cc(F)ccc1Nc1nc(Nc2ccc3c(c2)CCC(N2CCC4CC42)CC3)ncc1Cl (single isomer, unassigned) [Example 58 Isomer 58-4]"
8,49 nM,"CP(C)(=O)c1cc(F)ccc1Nc1nc(Nc2ccc3c(c2)CCC(N2CCC4(CC4)C2)CC3)ncc1Cl (single isomer, unassigned) [Example 62 Isomer 62-1]"
9,44.7 nM,"Cc1ccc(Nc2nc(Nc3ccc4c(c3)CCC(N3CCC5(CC5)C3)CC4)ncc2Cl)c(P(C)(C)=O)c1 (single isomer, unassigned) [Example 69 Isomer 69-2]"
10,26.7 nM,"Cc1ccc(Nc2nc(Nc3ccc4c(c3)CCC(N3CC5CC5C3)CC4)ncc2Cl)c(P(C)(C)=O)c1 (single isomer, unassigned) [Example 71 Isomer 71-2]"
11,1.02 nM,"Cc1ccc(Nc2nc(Nc3ccc4c(c3)CCC(N3CC5CC3CO5)CC4)ncc2Cl)c(P(C)(C)=O)c1 (single isomer, unassigned) [Example 72 Isomer 72-1]"
12,28.8 nM,"CP(C)(=O)c1cc(OC(F)F)ccc1Nc1nc(Nc2ccc3c(c2)CCC(N2C4COCC2C4)CC3)ncc1Cl (single isomer, unassigned) [Example 84 Isomer 84-2]"
13,36.5 nM,"CP(C)(=O)c1cc(C#N)ccc1Nc1nc(Nc2ccc3c(c2)CCC(N2C4COCC2C4)CC3)ncc1Cl (single isomer, unassigned) [Example 87 Isomer 87-2]"
14,39.4 nM,"CP(C)(=O)c1cc(C#N)ccc1Nc1nc(Nc2ccc3c(c2)CCC(N2C4CCC2COC4)CC3)ncc1Cl (single isomer, unassigned) [Example 88 Isomer 88-1]"
15,27.4 nM,"Cc1ccc(Nc2nc(Nc3ccc4c(c3)CCC(N3C5COCC3C5)CC4)ncc2Cl)c(P(C)(C)=O)c1 (single isomer, unassigned) [Example 89 Isomer 89-2]"
16,45.7 nM,"Cc1ccc(Nc2nc(Nc3ccc4c(c3)CCC(N3C5CCC3COC5)CC4)ncc2Cl)c(P(C)(C)=O)c1 (single isomer, unassigned) [Example 90 Isomer 90-2]"
17,38.2 nM,"CP(C)(=O)c1cc(F)ccc1Nc1nc(Nc2ccc3c(c2)CCC(N2C4CCC2COC4)CC3)ncc1Cl (single isomer, unassigned) [Example 92 Isomer 92-2]"
18,27.6 nM,"CP(C)(=O)c1cc(Cl)ccc1Nc1nc(Nc2ccc3c(c2)CCC(N2C4CCC2COC4)CC3)ncc1Cl (single isomer, unassigned) [Example 94 Isomer 94-2]"
19,1.2 nM,"CP(C)(=O)c1cc(OC(F)(F)F)ccc1Nc1nc(Nc2ccc3c(c2)CCC(N2C4CCC2COC4)CC3)ncc1Cl (single isomer, unassigned) [Example 101 Isomer 101-1]"
20,55.2 nM,"CP(C)(=O)c1cc(OC(F)(F)F)ccc1Nc1nc(Nc2ccc3c(c2)CCC(N2C4CCC2COC4)CC3)ncc1Cl (single isomer, unassigned) [Example 101 Isomer 101-2]"
21,47.5 nM,"CP(C)(=O)c1cc(OC(F)(F)F)ccc1Nc1nc(Nc2ccc3c(c2)CCC(N2C[C@H]4C[C@@H]2CO4)CC3)ncc1Cl (single isomer, unassigned) [Example 103 Isomer 103-2]"

# Source: US20230227484A1, “PYRIMIDINE COMPOUND AS AXL INHIBITOR” (NANJING CHIA TAI TIANQING PHARMACEUTICAL CO., LTD., priority 2020, published 2023)
